The chains behind the UniProt entries cited, without tags or fusion partners. Residues count along the entry.
UniProt P07333, 20-972 limits assumed: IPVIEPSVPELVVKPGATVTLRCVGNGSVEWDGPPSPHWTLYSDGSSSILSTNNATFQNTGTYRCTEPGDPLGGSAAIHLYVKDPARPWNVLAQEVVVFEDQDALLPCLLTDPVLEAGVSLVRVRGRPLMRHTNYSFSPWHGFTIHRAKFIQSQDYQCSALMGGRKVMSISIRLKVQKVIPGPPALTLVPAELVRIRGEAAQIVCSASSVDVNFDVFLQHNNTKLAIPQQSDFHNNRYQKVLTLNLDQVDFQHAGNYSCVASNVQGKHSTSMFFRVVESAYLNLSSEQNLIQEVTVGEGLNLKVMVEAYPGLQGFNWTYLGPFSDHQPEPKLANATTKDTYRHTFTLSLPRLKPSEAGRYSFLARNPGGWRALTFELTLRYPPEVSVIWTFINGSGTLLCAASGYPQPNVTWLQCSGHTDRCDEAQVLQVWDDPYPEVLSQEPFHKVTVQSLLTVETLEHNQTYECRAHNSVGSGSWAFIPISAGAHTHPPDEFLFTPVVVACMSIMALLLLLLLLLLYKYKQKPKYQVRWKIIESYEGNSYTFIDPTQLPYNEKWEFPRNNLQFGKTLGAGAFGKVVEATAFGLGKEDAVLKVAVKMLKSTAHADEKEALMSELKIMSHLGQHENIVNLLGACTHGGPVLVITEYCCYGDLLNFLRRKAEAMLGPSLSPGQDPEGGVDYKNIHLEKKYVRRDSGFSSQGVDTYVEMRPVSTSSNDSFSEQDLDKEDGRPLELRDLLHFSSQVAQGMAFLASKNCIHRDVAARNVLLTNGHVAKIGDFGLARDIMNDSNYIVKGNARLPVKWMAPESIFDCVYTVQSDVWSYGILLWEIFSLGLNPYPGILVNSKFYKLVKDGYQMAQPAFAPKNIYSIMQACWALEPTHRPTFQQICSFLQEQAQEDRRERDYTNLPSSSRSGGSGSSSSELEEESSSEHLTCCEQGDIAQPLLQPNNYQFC

In patent publication US7642270B2, “5-oxo-5,8-dihydro-pyrido-pyrimidine as inhibitors of c-fms kinase” (Janssen Pharmaceutica N.V., priority 2005, dated 2010):

Target: c-fms (Homo sapiens, UniProt P07333)
Assay: c-fms autophosphorylation, fluorescence polarization competition immunoassay
Format: biochemical
Settings: read-out: c-fms Autophosphorylation IC50; 10 nM c-fms, 1 mM ATP, 5 mM MgCl2, 45 min room temperature; averages of three independent measurements

| Compound | IC50 [nM] |
| --- | --- |
| NC(=O)c1cn(-c2ccc3c(c2)CCC3)c2nc(Nc3cccc(CO)c3)ncc2c1=O | 1400 |
| NC(=O)c1cn(-c2ccc3c(c2)CCC3)c2nc(Nc3ccc(-n4cccn4)cc3)ncc2c1=O | > 10000 |
